This series concerns plasma carboxypeptidase. Conditions: 37° C., FIG. 8.

Consider PYY(3-36), for which the “stability of PYY(3-36) incubated in human plasma (in words)” value is “disappearance of PYY(3-36) and an accompanying appearance of PYY(3-35)”.

These data come from patent US8598314B2 (priority 2007, dated 2013).
